By UniProt entry, the sequences of proteins in these tests, tags left out.
UniProt Q00987, whole entry: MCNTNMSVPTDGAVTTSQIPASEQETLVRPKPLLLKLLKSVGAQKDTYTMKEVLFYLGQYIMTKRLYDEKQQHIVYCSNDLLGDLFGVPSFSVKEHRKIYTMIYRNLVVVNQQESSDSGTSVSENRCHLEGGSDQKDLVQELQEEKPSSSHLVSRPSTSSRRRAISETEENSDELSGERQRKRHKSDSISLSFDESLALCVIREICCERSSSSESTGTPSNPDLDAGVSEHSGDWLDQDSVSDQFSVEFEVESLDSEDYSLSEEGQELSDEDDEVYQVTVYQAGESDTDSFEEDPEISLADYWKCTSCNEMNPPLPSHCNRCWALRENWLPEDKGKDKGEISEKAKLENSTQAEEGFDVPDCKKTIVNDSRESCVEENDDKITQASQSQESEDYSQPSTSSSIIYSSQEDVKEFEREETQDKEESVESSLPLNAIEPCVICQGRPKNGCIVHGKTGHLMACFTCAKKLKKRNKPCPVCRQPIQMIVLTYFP

According to US10183912B2, “HDMX inhibitors and their use for cancer treatment” (priority 2014, dated 2019):

Target: HDM2/p53 (Homo sapiens, UniProt Q00987)
Experiment: ELISA of recombinant HDM2/p53 interaction
Format: biochemical

Compound: COc1ccc(C2=N[C@@H](c3ccc(Cl)cc3)[C@@H](c3ccc(Cl)cc3)N2C(=O)N2CCNC(=O)C2)c(OC(C)C)c1 [nutlin-3, reference compound]
- disruption of HDM2/p53 interaction: disrupts the interaction between p53 and HDM2
